Results: US6979543B2
Only a part of the results on these compounds is given; other tests are left out.

Assay: Fluorescence quenching of MPS-PPV monolayer films by nitroaromatic vapor

With dinitrotoluene the “quenching of film fluorescence on vapor exposure (in words)” value (single monolayer MPS-PPV film on glass) was “substantial quenching of the fluorescence from the films” and the “level at which the film senses the vapor by fluorescence quenching” value (vapor, room temperature, from vapor pressure) was “less than 8×10^−9 M”.
